The assay has as its target Muscarinic acetylcholine receptor M3 (Homo sapiens, UniProt P20309). Briefly: M3 Receptor Affinity Test. On the procedure:
The experiment was performed by a radioisotope affinity assay. The M3 receptor membrane protein was prepared at 10 μg/mL by Biology Department of WuXi AppTec, and compounds were serially diluted in a 2.5-fold gradient in DMSO to obtain 10 concentrations. Radioisotope 3H-NMS was prepared at 0.2 nM in an assay buffer (10 mM HEPES, 1 mM MgCl2, p

Usually IC50 stands for the point on the concentration scale where inhibition reaches its midpoint. The low end stands for higher potency, the high end for lower potency.

In turn, `O=C(OC1CCN(CCCn2nnc3cc(CNC[C@H](O)c4ccc(O)c5[nH]c(=O)ccc45)c4c(c32)CCC4)CC1)[C@](O)(c1cccs1)c1ccc(Br)s1` registered an IC50 of 2.77 nM.

In the case of `O=C(OC1CCN(CCCn2nnc3cc(CNC[C@H](O)c4ccc(O)c5[nH]c(=O)ccc45)c4c(c32)CCC4)CC1)C(O)(c1cccs1)c1ccc(Br)s1` (some centres not stated), the IC50 is 4.16 nM.

The values are drawn from BindingDB's records for US20230322745 (Chia Tai Tianqing Pharmaceutical Group, 2023).
